{"source": "paper PMC5026484", "about": "(2016)", "target": "T1, bMERB domain (Rab binding domain) of Mical-cL, residues 534-683 (human, UniProt O94851 1796-1945)", "T1 chain": "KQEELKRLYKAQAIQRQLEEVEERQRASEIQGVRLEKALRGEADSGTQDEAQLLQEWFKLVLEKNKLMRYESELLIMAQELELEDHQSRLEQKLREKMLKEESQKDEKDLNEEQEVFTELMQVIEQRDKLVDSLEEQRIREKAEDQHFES", "experiment": "ITC; uncorrected Rab35 concentration"}
{"binder": "Rab35 (partly loaded with GppNHp) (natural protein) not shown", "values": [{"measurement": "Kd", "value": 2200, "unit": "nM"}]}
